The assay has as its target isolated polymerase domain (I1780-V2590) of DNA polymerase theta (Polθ) (Homo sapiens (Human), UniProt O75417). In words: biochemical.

Amino acid sequences for entries named in this document (tags omitted). Residues count along the entry.
UniProt O75417, 1780-2590: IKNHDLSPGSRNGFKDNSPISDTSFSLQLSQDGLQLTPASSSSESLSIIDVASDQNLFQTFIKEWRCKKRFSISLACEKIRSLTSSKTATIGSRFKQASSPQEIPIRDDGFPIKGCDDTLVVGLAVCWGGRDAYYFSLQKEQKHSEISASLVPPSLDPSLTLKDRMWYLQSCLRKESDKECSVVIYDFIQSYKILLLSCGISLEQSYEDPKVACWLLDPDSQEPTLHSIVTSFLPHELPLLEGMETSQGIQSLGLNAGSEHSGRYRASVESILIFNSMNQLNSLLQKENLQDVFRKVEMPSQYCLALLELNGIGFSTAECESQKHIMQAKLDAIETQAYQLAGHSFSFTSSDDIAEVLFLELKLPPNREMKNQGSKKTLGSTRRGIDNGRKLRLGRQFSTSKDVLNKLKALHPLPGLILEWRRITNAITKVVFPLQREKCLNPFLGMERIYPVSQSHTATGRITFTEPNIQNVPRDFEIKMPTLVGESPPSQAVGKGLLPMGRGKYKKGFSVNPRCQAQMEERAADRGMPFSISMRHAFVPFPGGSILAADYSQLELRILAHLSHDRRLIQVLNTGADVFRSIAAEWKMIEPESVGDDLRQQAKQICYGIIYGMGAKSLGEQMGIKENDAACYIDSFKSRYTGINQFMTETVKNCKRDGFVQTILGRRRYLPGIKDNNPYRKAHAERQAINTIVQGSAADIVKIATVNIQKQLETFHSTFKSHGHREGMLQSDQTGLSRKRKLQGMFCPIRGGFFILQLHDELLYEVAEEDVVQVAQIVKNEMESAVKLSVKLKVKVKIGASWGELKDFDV

`CC1(Oc2ncnc3c2nc(-c2ccc(OCCN4C5CCC4CNC5)cc2Cl)n3Cc2ccccc2)CC1` [Example T605, 8-(4-(2-(3,8-diazabicyclo[3.2.1]octan-8-yl)ethoxy)-2-chlorophenyl)-9-benzyl-6-(1-methylcyclopropoxy)-9H-purine]: the IC50 (commonly the concentration at which inhibition is half-maximal) was 5.01 nM.

With `Cc1ccnc(Cn2c(-c3ccc(CC(=O)N4C[C@@H](C)N[C@@H](C)C4)cc3Cl)nc3c(OC4(C)CC4)ncnc32)c1` [Example T606, 2-(3-chloro-4-(6-(1-methylcyclopropoxy)-9-((4-methylpyridin-2-yl)methyl)-9H-purin-8-yl)phenyl)-1-((3R,5S)-3,5-dimethylpiperazin-1-yl)ethan-1-one], the IC50 is 6.31 nM. The IC50 values of the last two compounds are within 1.5-fold of each other.

Regarding `CC(=O)N1CCN(CCOc2ccc(-c3nc4c(OC5(C)CC5)ncnc4n3Cc3cc(C)ccn3)c(Cl)c2)CC1` [Example T607, 1-(4-(2-(3-chloro-4-(6-(1-methylcyclopropoxy)-9-((4-methylpyridin-2-yl)methyl)-9H-purin-8-yl)phenoxy)ethyl)piperazin-1-yl)ethan-1-one], 7.94 nM corresponded to half-maximal inhibition (IC50).

In the case of `CC(C)(C)Oc1cccc2c1nc(-c1ccc(OCCN3CCNCC3)cc1Cl)n2Cc1cccc(Cl)c1` [Example T608, 4-(tert-butoxy)-2-(2-chloro-4-(2-(piperazin-1-yl)ethoxy)phenyl)-1-(3-chlorobenzyl)-1H-benzo[d]imidazole], the midpoint of inhibition, the IC50, lay at 12.6 nM.

On to `Cc1ccnc(Cn2c(-c3ccc(OCCN4CCNCC4)cc3Cl)nc3c(OC(C)(C)C)cccc32)c1` [Example T609, 4-(tert-butoxy)-2-(2-chloro-4-(2-(piperazin-1-yl)ethoxy)phenyl)-1-((4-methylpyridin-2-yl)methyl)-1H-benzo[d]imidazole], for which the midpoint of inhibition, the IC50, lay at 3.98 nM.

On to `Cc1ccnc(Cn2c(-c3ccc(OCCN4CCN(C)CC4)cc3Cl)nc3c(OC(C)(C)C)nccc32)c1` [Example T610, 4-(tert-butoxy)-2-(2-chloro-4-(2-(4-methylpiperazin-1-yl)ethoxy)phenyl)-1-((4-methylpyridin-2-yl)methyl)-1H-imidazo[4,5-c]pyridine], for which the IC50 is 200 nM.

In turn, `CC1(Oc2cccc3c2nc(-c2ccc(OCCN4CCNCC4)cc2Cl)n3Cc2cccc(Cl)c2)CCC1` [Example T611, 2-(2-chloro-4-(2-(piperazin-1-yl)ethoxy)phenyl)-1-(3-chlorobenzyl)-4-(1-methylcyclobutoxy)-1H-benzo[d]imidazole] gave an IC50 of 15.8 nM.

The compound `COCc1cc(OCCN2CCN(C)CC2)ccc1-c1nc2c(OC3(C)CC3)ncnc2n1Cc1ccccc1` [Example T612, 9-benzyl-8-(2-(methoxymethyl)-4-(2-(4-methylpiperazin-1-yl)ethoxy)phenyl)-6-(1-methylcyclopropoxy)-9H-purine] had an IC50 of 25.1 nM.

On to `C[C@@H](CCOc1ccc(-c2nc3c(OC4(C)CC4)ncnc3n2Cc2cccc(C#N)c2)c(Cl)c1)C(=O)O` [Example U8, (S)-4-(3-chloro-4-(9-(3-cyanobenzyl)-6-(1-methylcyclopropoxy)-9H-purin-8-yl)phenoxy)-2-methylbutanoic acid], for which the IC50 is 5.01 nM.

In the case of `C[C@H](CCOc1ccc(-c2nc3c(OC4(C)CC4)ncnc3n2Cc2cc(Cl)ccc2F)c(Cl)c1)C(=O)O` [Example U10, (R)-4-(3-chloro-4-(9-(5-chloro-2-fluorobenzyl)-6-(1-methylcyclopropoxy)-9H-purin-8-yl)phenoxy)-2-methylbutanoic acid], the IC50 is 3.98 nM.

For the compound `C[C@@H](CCOc1ccc(-c2nc3c(OC4(C)CC4)ncnc3n2Cc2cc(Cl)ccc2F)c(Cl)c1)C(=O)O` [Example U11, (S)-4-(3-chloro-4-(9-(5-chloro-2-fluorobenzyl)-6-(1-methylcyclopropoxy)-9H-purin-8-yl)phenoxy)-2-methylbutanoic acid], the IC50 was 5.01 nM.

Consider `CC1(Oc2ncnc3c2nc(-c2ccc(OCC4(CC(=O)O)CC4)cc2Cl)n3Cc2ccccc2C#N)CC1` [Example U15, 2-(1-((3-chloro-4-(9-(2-cyanobenzyl)-6-(1-methylcyclopropoxy)-9H-purin-8-yl)phenoxy)methyl)cyclopropyl)acetic acid], for which the IC50 is 10 nM.

In turn, `CC1(Oc2ncnc3c2nc(-c2ccc(OCCC(C)(C)C(=O)O)cc2Cl)n3Cc2ccccc2C#N)CC1` [Example U17, 4-(3-chloro-4-(9-(2-cyanobenzyl)-6-(1-methylcyclopropoxy)-9H-purin-8-yl)phenoxy)-2,2-dimethylbutanoic acid] had an IC50 of 6.31 nM.

Regarding `CC1(Oc2ncnc3c2nc(-c2ccc(CCCCC(=O)O)cc2Cl)n3Cc2ccccc2C#N)CC1` [Example U20, 5-(3-chloro-4-(9-(2-cyanobenzyl)-6-(1-methylcyclopropoxy)-9H-purin-8-yl)phenyl)pentanoic acid], the IC50 was 6.31 nM.

With `CC1(Oc2ncnc3c2nc(-c2ccc(OCCCC(C)(C)C(=O)O)cc2Cl)n3Cc2ccccc2C#N)CC1` [Example U21, 5-(3-chloro-4-(9-(2-cyanobenzyl)-6-(1-methylcyclopropoxy)-9H-purin-8-yl)phenoxy)-2,2-dimethylpentanoic acid], half-maximal inhibition (IC50) was put at 5.01 nM. The IC50 values of the last two compounds are within 1.5-fold of each other.

Consider `CC1(Oc2ncnc3c2nc(-c2cccc(OCCOCC(=O)O)c2Cl)n3Cc2cc(Cl)ccc2F)CC1` [Example U22, 2-(2-(2-chloro-3-(9-(5-chloro-2-fluorobenzyl)-6-(1-methylcyclopropoxy)-9H-purin-8-yl)phenoxy)ethoxy)acetic acid], for which the IC50 was 5.01 nM.

Compound `C[C@@H](CCOc1cccc(-c2nc3c(OC4(C)CC4)ncnc3n2Cc2cc(Cl)ccc2F)c1Cl)C(=O)O` [Example U24, (S)-4-(2-chloro-3-(9-(5-chloro-2-fluorobenzyl)-6-(1-methylcyclopropoxy)-9H-purin-8-yl)phenoxy)-2-methylbutanoic acid] had an IC50 of 6.31 nM.

The compound `C[C@H](CCOc1cccc(-c2nc3c(OC4(C)CC4)ncnc3n2Cc2cc(Cl)ccc2F)c1Cl)C(=O)O` [Example U26, (R)-4-(2-chloro-3-(9-(5-chloro-2-fluorobenzyl)-6-(1-methylcyclopropoxy)-9H-purin-8-yl)phenoxy)-2-methylbutanoic acid] had an IC50 of 7.94 nM. This IC50 and that of the compound before are within 1.5-fold of each other.

For `CC(C)(CCOc1cccc(-c2nc3c(OC4(C)CC4)ncnc3n2Cc2cccc(Cl)c2)c1Cl)CC(=O)O` [Example U28, 5-(2-chloro-3-(9-(3-chlorobenzyl)-6-(1-methylcyclopropoxy)-9H-purin-8-yl)phenoxy)-3,3-dimethylpentanoic acid], 7.94 nM corresponded to half-maximal inhibition (IC50).

In the case of `COc1ccc(Cl)cc1Cn1c(-c2cccc(OCCCOCC(=O)O)c2Cl)nc2c(OC3(C)CC3)ncnc21` [Example U30, 2-(3-(2-chloro-3-(9-(5-chloro-2-methoxybenzyl)-6-(1-methylcyclopropoxy)-9H-purin-8-yl)phenoxy)propoxy)acetic acid], the IC50 is 7.94 nM. That is a single-digit nanomolar value.

In the case of `COc1ccc(Cl)cc1Cn1c(-c2ccc(OCCC(C)(C)C(=O)O)cc2Cl)nc2c(OC3(C)CC3)ncnc21` [Example U31, 4-(3-chloro-4-(9-(5-chloro-2-methoxybenzyl)-6-(1-methylcyclopropoxy)-9H-purin-8-yl)phenoxy)-2,2-dimethylbutanoic acid], 7.94 nM corresponded to half-maximal inhibition (IC50).

In turn, `CC1(Oc2ncnc3c2nc(-c2cccc(OCCC(=O)O)c2Cl)n3Cc2cc(Cl)ccc2F)CC1` [Example U32, 3-(2-chloro-3-(9-(5-chloro-2-fluorobenzyl)-6-(1-methylcyclopropoxy)-9H-purin-8-yl)phenoxy)propanoic acid] showed an IC50 of 7.94 nM.

Compound `CC1(Oc2ncnc3c2nc(-c2cc(F)cc(OCCC(=O)O)c2Cl)n3Cc2cccc(Cl)c2)CC1` [Example U39, 3-(2-chloro-3-(9-(3-chlorobenzyl)-6-(1-methylcyclopropoxy)-9H-purin-8-yl)-5-fluorophenoxy)propanoic acid] gave an IC50 of 3.98 nM. Against the preceding compound, the IC50 is about 2-fold lower.

In turn, `CC1(Oc2ncnc3c2nc(-c2ccc(OCCC(C)(C)C(=O)O)cc2Cl)n3Cc2cc(Cl)ccc2F)CC1` [Example U46, 4-(3-chloro-4-(9-(5-chloro-2-fluorobenzyl)-6-(1-methylcyclopropoxy)-9H-purin-8-yl)phenoxy)-2,2-dimethylbutanoic acid] showed an IC50 of 7.94 nM.

In the case of `COc1ccc(Cl)cc1Cn1c(-c2ccc(OCCCC(C)(C)C(=O)O)cc2Cl)nc2c(OC3(C)CC3)ncnc21` [Example U47, 5-(3-chloro-4-(9-(5-chloro-2-methoxybenzyl)-6-(1-methylcyclopropoxy)-9H-purin-8-yl)phenoxy)-2,2-dimethylpentanoic acid], the IC50 was 7.94 nM.

The compound `COc1ccc(Cl)cc1Cn1c(-c2ccc(OCCOCC(=O)O)cc2Cl)nc2c(OC3(C)CC3)ncnc21` [Example U48, 2-(2-(3-chloro-4-(9-(5-chloro-2-methoxybenzyl)-6-(1-methylcyclopropoxy)-9H-purin-8-yl)phenoxy)ethoxy)acetic acid] showed an IC50 of 6.31 nM. This IC50 and that of the compound before are within 1.5-fold of each other.

Take `COc1ccc(Cl)cc1Cn1c(-c2cccc(OCCOCC(=O)O)c2Cl)nc2c(OC3(C)CC3)ncnc21` [Example U52, 2-(2-(2-chloro-3-(9-(5-chloro-2-methoxybenzyl)-6-(1-methylcyclopropoxy)-9H-purin-8-yl)phenoxy)ethoxy)acetic acid]: the concentration for half-maximal inhibition (IC50) is 7.94 nM.

`COc1ccc(Cl)cc1Cn1c(-c2ccc(OCCOC(C)(C)C(=O)O)cc2Cl)nc2c(OC3(C)CC3)ncnc21` [Example U54, 2-(2-(3-chloro-4-(9-(5-chloro-2-methoxybenzyl)-6-(1-methylcyclopropoxy)-9H-purin-8-yl)phenoxy)ethoxy)-2-methylpropanoic acid] gave an IC50 of 10 nM.

`COc1ccc(Cl)cc1Cn1c(-c2cccc(CCCC(=O)O)c2Cl)nc2c(OC3(C)CC3)ncnc21` [Example U62, 4-(2-chloro-3-(9-(5-chloro-2-methoxybenzyl)-6-(1-methylcyclopropoxy)-9H-purin-8-yl)phenyl)butanoic acid] gave an IC50 of 3.98 nM. Compared with the last compound, the IC50 is about 2.5-fold lower.

Take `CC1(Oc2ncnc3c2nc(-c2cccc(OCC(F)(F)CC(=O)O)c2Cl)n3Cc2cccc(Cl)c2)CC1` [Example U63, 4-(2-chloro-3-(9-(3-chlorobenzyl)-6-(1-methylcyclopropoxy)-9H-purin-8-yl)phenoxy)-3,3-difluorobutanoic acid]: the midpoint of inhibition, the IC50, lay at 3.16 nM.

In the case of `COc1ccc(Cl)cc1Cn1c(-c2cccc(CCC(=O)O)c2Cl)nc2c(OC3(C)CC3)ncnc21` [Example U64, 3-(2-chloro-3-(9-(5-chloro-2-methoxybenzyl)-6-(1-methylcyclopropoxy)-9H-purin-8-yl)phenyl)propanoic acid], the midpoint of inhibition, the IC50, lay at 5.01 nM.

For the origin of these results see patent publication US20250195530A1, “POLQ INHIBITORS” (ASTRAZENECA AB, priority 2022, published 2025).
